From US10112939B2, “Tied-back benzamide derivatives as potent rock inhibitors” (Bristol-Myers Squibb Company, priority 2014, dated 2018) come the findings set out here.

Protein sequences, listed by entry. Tags and fused reporters are not part of them.
UniProt O75116, whole entry, species assumed: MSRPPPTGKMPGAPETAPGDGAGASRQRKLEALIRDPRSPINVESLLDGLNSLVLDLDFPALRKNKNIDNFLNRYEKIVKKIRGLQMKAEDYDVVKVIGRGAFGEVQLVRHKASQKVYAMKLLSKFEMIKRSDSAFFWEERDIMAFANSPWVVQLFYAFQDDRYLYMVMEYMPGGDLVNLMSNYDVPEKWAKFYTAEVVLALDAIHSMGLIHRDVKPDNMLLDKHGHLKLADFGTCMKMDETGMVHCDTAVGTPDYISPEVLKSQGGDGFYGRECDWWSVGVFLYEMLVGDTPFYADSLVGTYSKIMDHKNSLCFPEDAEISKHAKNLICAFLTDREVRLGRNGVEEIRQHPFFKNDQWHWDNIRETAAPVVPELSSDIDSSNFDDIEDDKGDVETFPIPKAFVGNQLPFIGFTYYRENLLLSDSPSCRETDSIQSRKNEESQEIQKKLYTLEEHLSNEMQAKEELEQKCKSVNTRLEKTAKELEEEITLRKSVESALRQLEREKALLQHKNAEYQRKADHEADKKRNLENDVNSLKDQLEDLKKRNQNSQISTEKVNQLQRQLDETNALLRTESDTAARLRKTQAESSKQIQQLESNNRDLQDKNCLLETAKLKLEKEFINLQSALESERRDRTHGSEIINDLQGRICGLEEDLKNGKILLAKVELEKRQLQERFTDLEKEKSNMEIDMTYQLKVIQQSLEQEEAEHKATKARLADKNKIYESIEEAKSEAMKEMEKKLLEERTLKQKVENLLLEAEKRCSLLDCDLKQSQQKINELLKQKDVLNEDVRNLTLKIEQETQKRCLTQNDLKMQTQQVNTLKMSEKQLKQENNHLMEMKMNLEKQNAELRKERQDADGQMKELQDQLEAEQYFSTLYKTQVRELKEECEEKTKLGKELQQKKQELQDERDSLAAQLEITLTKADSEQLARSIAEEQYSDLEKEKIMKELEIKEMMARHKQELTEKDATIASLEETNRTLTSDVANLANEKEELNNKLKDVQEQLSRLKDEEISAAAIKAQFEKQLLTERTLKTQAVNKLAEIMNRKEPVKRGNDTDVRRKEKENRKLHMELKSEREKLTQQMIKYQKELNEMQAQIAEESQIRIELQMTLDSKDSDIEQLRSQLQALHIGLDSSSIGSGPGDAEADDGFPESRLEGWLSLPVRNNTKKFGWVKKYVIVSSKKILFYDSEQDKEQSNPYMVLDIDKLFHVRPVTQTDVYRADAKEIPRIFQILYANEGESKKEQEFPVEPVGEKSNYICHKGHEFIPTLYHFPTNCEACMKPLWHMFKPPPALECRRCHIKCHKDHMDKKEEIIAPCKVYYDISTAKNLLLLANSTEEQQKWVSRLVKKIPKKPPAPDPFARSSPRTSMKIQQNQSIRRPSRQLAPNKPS

Molecules are shown by their SMILES. Like-named read-outs stand apart in the source and are kept apart here.

The target of the test is ROCK2 (Homo sapiens (Human), UniProt O75116). In words: ROCK assay (peptide substrate phosphorylation, LABCHIP 3000 Reader). Format: biochemical. How it is done: Compounds were dissolved in DMSO so that the final concentration of DMSO was <2%, and the reaction was initiated with Rho kinase variants. After incubation, the reaction was terminated by the addition of EDTA and the phosphorylated and non-phosphorylated peptides separated using a LABCHIP® 3000 Reader (Caliper Life Sciences). […] Compounds were tested in dose-response format, and the inhibition of kinase activity was calculated at each concentration of compound.

Where [1] appears, read: 5 μM ATP, 1.5 μM peptide substrate.

The IC50 is the point on the concentration scale where inhibition reaches its midpoint. Read a high IC50 as weaker potency in that assay. The compound `COc1cc(C(=O)N2CC(O)C[C@@H]2c2cccc(C(=O)NC3(C)CCC3)c2)ccc1-c1cn[nH]c1` (stereo partly drawn) [Example 53, 3-[(2R)-4-hydroxy-1-[3-methoxy-4-(1H-pyrazol-4-yl)benzoyl]pyrrolidin-2-yl]-N-(1-methylcyclobutyl) benzamide] displayed an IC50 of 0.102 µM. In other words, the sub-micromolar range.

Compound `COc1cc(C(=O)N2CCCC2c2cccc(C(=O)NC3CCN(C)CC3)c2)ccc1-c1cn[nH]c1` (stereo not drawn) [Example 38, 3-{1-[3-methoxy-4-(1H-pyrazol-4-yl)benzoyl]pyrrolidin-2-yl}-N-(1-methylpiperidin-4-yl)benzamide] registered an IC50 under setting [1] of 0.00213 µM.

Consider `COc1cc(C(=O)N2CCCC2c2cccc(C(=O)NC3CCN(C)CC3)c2)ccc1-c1cn[nH]c1` (stereo not drawn) [Example 37, 3-{1-[3-methoxy-4-(1H-pyrazol-4-yl)benzoyl]pyrrolidin-2-yl}-N-(1-methylpiperidin-4-yl)benzamide], for which the 50% inhibitory concentration (IC50) under setting [1] was 0.751 µM. This IC50 is about 350-fold higher than that of the compound before.
